Only a part is listed here, and it is no random draw. Some salts or complexes appear as unconnected parts, following the source record. Calls of active or inactive are those of the source.

This assay is described as follows: UUG initiation codon usage in yeast – whole organism, S. cerevisiae, single point, plate reader, primary screen (AID 602363).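 Further: firefly luciferase made from a UUG start codon reports start codon fidelity.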 Conditions: S. cerevisiae UUG-firefly luciferase reporter, luminescence/redox ratio; at 18.7 µM; active compounds read high. Background: A reporter such as luciferase makes a cellular process visible.
For the compound `O=[N+]([O-])c1cc([N+](=O)[O-])c(Nc2ccccn2)c([N+](=O)[O-])c1`, the activity score was inactive: -21.1%.

With `CC(C)CC(=O)NC(Sc1ccc(Cl)cc1)C(Cl)(Cl)Cl` (configuration not stated), the activity score was inactive: -34.8%.

Take `O=C(NC(Sc1ccncn1)C(Cl)(Cl)Cl)c1ccccc1` (configuration not stated): the activity score was inactive: -8.91%.

`Oc1ccccc1CNc1ccccn1`: the activity score is inactive: -12.3%.

As for `COc1ccccc1OP(C)(=O)Nc1ccc(C)cc1C` (configuration not stated), the activity score is inactive: -46.8%.

`CP(=O)(Nc1ccccn1)Oc1ccccc1` (configuration not stated): the activity score is inactive: -15.9%.

In the case of `CCc1ccc(OP(C)(=O)O)cc1`, the activity score is inactive: -9.4%.

Turning to `Cc1ccc(N/C(=N/P(=O)(N2CCOCC2)N2CCOCC2)N2CCOCC2)cc1`, the activity score is inactive: 0.997%.

For the compound `COc1ccccc1OP(C)(=O)Nc1ccc(Br)cc1` (configuration not stated), the activity score was inactive: -16.2%.

For the compound `CN(C(=O)Cc1ccc(Cl)c(Cl)c1)[C@H]1CCCC[C@H]1N1CCCC1`, the activity score is inactive: -1.88%.

As to `Cc1ccc(OP(=O)(Nc2nccs2)Oc2ccc(C)cc2)cc1`, the activity score is inactive: -15.6%.

On to `COc1ccc(OP(C)(=O)Nc2ccccn2)cc1` (configuration not stated), for which the activity score is inactive: -9.84%.

As for `CN(C)CCOC(=O)C(O)(c1ccccc1)C1CCCC1` (configuration not stated), the activity score was inactive: -10.2%.

Take `Clc1ccc(Cl)c(NC2=NCC(CBr)S2)c1` (configuration not stated): the activity score is inactive: -15.6%.

Consider `CN1CCCC(OC(=O)C(c2ccccc2)c2ccccc2)C1` (configuration not stated), for which the activity score is inactive: 2.91%.

Take `CP(=O)(Nc1ccc(Cl)cc1Cl)Oc1ccccc1` (configuration not stated): the activity score was inactive: -8.48%.

As for `Nc1cccc2ccc([As](=O)(O)O)cc12`, the activity score is inactive: 11.3%.

As for `O=C(O)c1ccccc1[As](=O)(O)O`, the activity score was inactive: -5.52%.

For `CC(=O)Nc1ccc([As](=O)(O)O)cc1`, the activity score was inactive: 5.91%.

Regarding `CN(C)P(=O)(N(C)C)n1c(Nc2ccccc2)nnc1-c1ccccc1`, the activity score was inactive: 4.18%.

Turning to `O=C1C(O)=C([N+](=O)[O-])C(=O)C(O)=C1[N+](=O)[O-]`, the activity score was inactive: -11.5%.

Consider `CN(C(=O)Cc1ccc(Cl)c(Cl)c1)[C@H]1CCCC[C@@H]1N1CCCC1`, for which the activity score was inactive: -6.74%.

Consider `COc1ccccc1OP(C)(=O)Nc1ccc(C)c(C)c1` (configuration not stated), for which the activity score is inactive: -11.3%.

Regarding `CCOP(=O)(Nc1ccccc1)OCC`, the activity score was inactive: -15.1%.

Regarding `O=[N+]([O-])c1cccc(NC2=NCC(CBr)S2)c1` (configuration not stated), the activity score was inactive: -7.6%.

Turning to `O=C(O)CNc1ccc([As](=O)(O)O)cc1`, the activity score is inactive: -8.99%.

Regarding `O=P1(N(CCCl)CCCl)OCCCS1` (configuration not stated), the activity score is inactive: -9.95%.

As to `O=C(Nc1cc([As](=O)(O)O)ccc1O)c1ccccc1`, the activity score is inactive: -13.8%.

For the compound `CCOC(=O)c1ccc(NP(C)(=O)Oc2ccc(Cl)cc2)cc1` (configuration not stated), the activity score is inactive: 4.36%.

As to `CP(=O)(OC12CC3CC(CC(C3)C1)C2)OC12CC3CC(CC(C3)C1)C2`, the activity score was inactive: -5.67%.

As to `C[N+]1=C2C=CC=CC=C2SC12C([N+](=O)[O-])=CC([N+](=O)[O-])=C[C-]2[N+](=O)[O-]` (configuration not stated), the activity score is inactive: -37%.

With `Nc1ccc([As](=O)(O)c2ccc(N)cc2)cc1`, the activity score is inactive: -12.8%.

As to `CC(C)(C)c1ccc(OP(C)(=O)O)cc1`, the activity score is inactive: -7.59%.

`COc1ccccc1OP(C)(=O)Nc1ccccc1Br` (configuration not stated): the activity score was inactive: -11%.

`CP(=O)(Nc1ccc(Cl)cc1)Oc1ccc(F)cc1` (configuration not stated): the activity score is inactive: -9.68%.

For `CC(C)c1nc(Nc2ccccc2)n(P(=O)(N(C)C)N(C)C)n1`, the activity score is inactive: -32%.

Regarding `c1cc(-c2nn[nH]n2)ccc1-c1nn[nH]n1`, the activity score was inactive: -17.1%.

As to `CC1CCN(C(=O)Oc2c(Cl)cc(Cl)c3cccnc23)CC1`, the activity score is inactive: -2.92%.

Consider `COc1ccc(C2=NCC(CBr)S2)cc1` (configuration not stated), for which the activity score was inactive: 1.32%.

In the case of `COc1ccc(OP(C)(=O)Nc2ccc(Br)cc2)cc1` (configuration not stated), the activity score is inactive: 2.52%.

Regarding `CCN(CC)CC(O)COC(=O)C(O)(c1ccccc1)C1CCCCC1` (configuration not stated), the activity score was inactive: -4.05%.

As to `O=C(OCCCN1CCCC1)C(O)(c1ccccc1)C1CCCCC1` (configuration not stated), the activity score is inactive: -10.6%.

For `COc1ccccc1OP(C)(=O)Nc1c(C)n(C)n(-c2ccccc2)c1=O` (configuration not stated), the activity score is inactive: 1.19%.

For `CC(=O)N1C2C3N(C(C)=O)C1C1N(C(C)=O)C(C(N1C(C)=O)N3C(C)=O)N2C(C)=O`, the activity score was inactive: -15.7%.

Turning to `O=[N+]([O-])c1cccc2n[nH]nc12`, the activity score is inactive: -24.2%.

In the case of `CCc1nc2c(n1)c1c(non1O)c1c2no[n+]1[O-]`, the activity score is inactive: -23.8%.

As for `CCc1ccc(OP(C)(=O)Nc2cccnc2)cc1` (configuration not stated), the activity score is inactive: -16%.

Consider `CP(=O)(Oc1ccccc1)N1CCOC1=O` (configuration not stated), for which the activity score was inactive: -9.14%.

`CP(=O)(Nc1ccc2c(c1)OCCO2)Oc1ccccc1` (configuration not stated): the activity score was inactive: -11.8%.

Turning to `Cc1ccccc1NP(C)(=O)Nc1ccccc1C`, the activity score is inactive: -17.6%.

`O=P(Nc1nccs1)(c1ccccc1)c1ccccc1`: the activity score was inactive: -9.91%.

For `CCOP(C)(=S)SCC(=O)NC(C)(CC)C(=O)O` (configuration not stated), the activity score was inactive: -3.37%.

For `c1nnnn1CCn1cnnn1`, the activity score was inactive: -17%.

In the case of `O=[N+]([O-])c1ccc(OP2(=O)COCCO2)cc1` (configuration not stated), the activity score was inactive: -17.7%.

Take `CC(=O)NC(SC(=S)N(C)C)C(Cl)(Cl)Cl` (configuration not stated): the activity score was inactive: 0.582%.

As for `O=[N+]([O-])c1ccc(O)c(/C=N/Nc2ccc([N+](=O)[O-])cc2[N+](=O)[O-])c1`, the activity score was inactive: 22.2%.

Take `Cc1cc(-c2cccc3ccccc23)c(C)cn1.O=[N+]([O-])c1cc([N+](=O)[O-])c(O)c([N+](=O)[O-])c1`: the activity score was inactive: -9.64%.

As for `O=[As](O)(c1ccccc1)c1ccc(O)cc1`, the activity score was inactive: -14.9%.

Regarding `Nc1ccc([As](=O)(O)c2ccc([N+](=O)[O-])cc2)cc1`, the activity score was inactive: -3.52%.

Consider `Cc1c(C(c2ccc3c(c2)OCO3)c2c(C)n(C)n(-c3ccccc3)c2=O)c(=O)n(-c2ccccc2)n1C.O=[N+]([O-])c1cc([N+](=O)[O-])c(O)c([N+](=O)[O-])c1`, for which the activity score was inactive: -13%.

Turning to `O=C(OC1CN2CCC1CC2)c1cccc(Cl)c1` (configuration not stated), the activity score is inactive: -23.6%.

For the compound `COc1ccc(N)c([N+](=O)[O-])c1[N+](=O)[O-]`, the activity score is inactive: 13.6%.

Consider `COc1ccc(OP(C)(=O)Nc2cccc(Br)c2)cc1` (configuration not stated), for which the activity score was inactive: -11.7%.

As to `CN(C)C1(CNC(=O)c2ccc(Cl)c(S(N)(=O)=O)c2)CCCCC1`, the activity score is inactive: -2.37%.

In the case of `O=P(Nc1ccccn1)(c1ccc(Br)cc1)c1ccc(Br)cc1`, the activity score was inactive: -7.4%.

On to `C[C@H]1OP(=O)(Oc2ccccc2)[C@H](O)[C@H](O)[C@H]1N=[N+]=[N-]` (some centres not stated), for which the activity score is inactive: -17.8%.

`O=P(Nc1nc2ccccc2s1)(c1ccccc1)c1ccccc1`: the activity score was inactive: -10.2%.

With `CN(C)CCOC(=O)C(O)(c1ccccc1)C1CCCCC1` (configuration not stated), the activity score is inactive: -19.1%.

For the compound `COc1ccc(NP(C)(=O)Oc2ccccc2OC)cc1` (configuration not stated), the activity score is inactive: -11.5%.

With `CC(=O)NC(SC(=S)N(CC(C)C)CC(C)C)C(Cl)(Cl)Cl` (configuration not stated), the activity score is inactive: -31.1%.

For the compound `COC(=O)c1cc2c(s1)N=C(c1ccccc1)N(C)P2(=O)N1CCOCC1` (configuration not stated), the activity score is inactive: -1.28%.

Turning to `Cc1c([N+](=O)[O-])cc([N+](=O)[O-])c(Br)c1[N+](=O)[O-]`, the activity score is inactive: -18.8%.

For `CCC(=O)N1C2C3N(C(=O)CC)C1C1N(C(=O)CC)C(C(N1C(=O)CC)N3C(=O)CC)N2C(=O)CC`, the activity score was inactive: -5.48%.

As to `CCN(CC)CCCOC(=O)C(O)(c1ccccc1)C1CCCCC1` (configuration not stated), the activity score was inactive: 1.1%.

On to `O=C(OC1CN2CCC1CC2)c1ccccc1` (configuration not stated), for which the activity score was inactive: -18.9%.

For `CP(=O)(Nc1ccccc1)Oc1ccc(F)cc1` (configuration not stated), the activity score was inactive: -11.3%.

On to `CN(C)C(=O)Oc1noc2ccccc12`, for which the activity score was inactive: -5.41%.

Regarding `O=[N+]([O-])c1cc([N+](=O)[O-])c(OC2CCCCC2O)c([N+](=O)[O-])c1` (configuration not stated), the activity score is inactive: -25.3%.

In the case of `CCCCCOc1ccc(NP(C)(=O)Oc2ccc(Cl)cc2Cl)cc1` (configuration not stated), the activity score was inactive: -6.86%.

As for `CC(NC(=O)COC(=O)C(O)(c1ccccc1)c1ccccc1)c1ccccc1` (configuration not stated), the activity score was inactive: 7.3%.

Consider `CCNC(=S)/N=C(\N)N[N+](=O)[O-]`, for which the activity score was inactive: 1.23%.

For the compound `Cc1ccc(NP(=O)(Oc2cccc(C)c2)Oc2cccc(C)c2)nc1`, the activity score is inactive: -18.7%.

`CCOC(=O)c1ccc(NP(C)(=O)Oc2ccc(F)cc2)cc1` (configuration not stated): the activity score is inactive: -7.67%.

Take `O=P1(N(CCCl)CCCl)OCCC2CCCCN21` (configuration not stated): the activity score was inactive: -19%.

Turning to `CC(=O)c1ccc(N2CC2c2ccncc2)cc1` (configuration not stated), the activity score is inactive: -26.6%.

As to `C[C@@H]1C=CCP(=O)(Oc2ccccc2)O1` (some centres not stated), the activity score is inactive: -21.9%.

Turning to `C[C@H]1OP(=O)(Oc2ccccc2)C[C@@H]2O[C@@H]21` (some centres not stated), the activity score was inactive: -10.1%.

Take `O=C(OCCN1CCN(CCOCc2ccccc2)CC1)C(O)(c1ccccc1)c1ccccc1`: the activity score was inactive: -4.28%.

In the case of `Cc1ccccc1CN(C)C(=O)COC(=O)C(O)(c1ccccc1)c1ccccc1`, the activity score is inactive: 9.28%.

Consider `CC(=O)Nc1ccc(Oc2c([N+](=O)[O-])cc([N+](=O)[O-])cc2[N+](=O)[O-])cc1`, for which the activity score was inactive: -0.107%.

With `COc1ccc2c(c1O)-c1c(O)c(OC)cc3c1[C@H](C2)[N+](C)(C)CC3.O=[N+]([O-])c1cc([N+](=O)[O-])c([O-])c([N+](=O)[O-])c1[O-]`, the activity score was inactive: -6.42%.

For the compound `CC(=O)Nc1ccc([As](=O)(O)O)c(O)c1`, the activity score was inactive: -22.5%.

For `O=P1(Nc2nc3ccc(Cl)cc3s2)COc2ccccc2O1` (configuration not stated), the activity score is inactive: -21.9%.

For the compound `O=[N+]([O-])c1cc([N+](=O)[O-])c(Nc2ccc(Cl)cc2)c([N+](=O)[O-])c1`, the activity score was inactive: -37.8%.

As to `CP(=O)(Nc1ccccc1F)Oc1ccccc1` (configuration not stated), the activity score was inactive: -7.58%.

As to `CCc1cc(O)c([N+](=O)[O-])c(C)c1[N+](=O)[O-]`, the activity score was inactive: -13.9%.

As for `CCCOP(=S)(Nc1nc(N)cc(=O)[nH]1)OCCC`, the activity score was inactive: -19.1%.

Values taken from PubChem BioAssay AID602363 (Broad Institute, 2012).
